# Where two headings read alike, the source gives them in different places.
# Biological target: T1, rat GLP-1 receptor (Rattus norvegicus, UniProt P32301)
# T1 construct: expressed in transfected cells; host or cells: CHO cells
# T1 sequence (P32301 22-463): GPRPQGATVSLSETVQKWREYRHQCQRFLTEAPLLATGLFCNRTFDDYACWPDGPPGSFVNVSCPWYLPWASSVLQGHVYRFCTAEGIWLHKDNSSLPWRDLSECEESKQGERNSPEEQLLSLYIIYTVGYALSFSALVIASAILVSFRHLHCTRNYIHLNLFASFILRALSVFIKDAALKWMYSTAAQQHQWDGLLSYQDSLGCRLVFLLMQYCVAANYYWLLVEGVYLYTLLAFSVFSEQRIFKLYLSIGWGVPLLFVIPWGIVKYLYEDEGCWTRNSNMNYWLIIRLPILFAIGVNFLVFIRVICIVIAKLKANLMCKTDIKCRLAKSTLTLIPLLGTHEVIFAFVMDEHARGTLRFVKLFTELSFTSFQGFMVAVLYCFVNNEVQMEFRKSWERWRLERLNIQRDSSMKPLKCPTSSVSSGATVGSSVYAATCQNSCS
# Assay: cAMP assay of fermented GLP-1/linker/mTf constructs
# Assay type: cell-based
# Conditions: for activity compared with a construct without a linker: cAMP assay, vs pREX0505
# [1] = cAMP assay of fermentation product, Tables 1, 3, 6, read-out: Activity
Substance,EC50 [1],activity compared with a construct without a linker,"EC50 (running text of Example 2, read-out: EC50 / potency in cAMP assay)"
pREX0507: nL GLP-1 (7-37; K34N) SS mTf,157 nM,about the same as that for a construct without a linker,
pREX0509: nL GLP-1 (7-37; K34N) SSG mTf,73.8 nM,about the same as that for a construct without a linker,
pREX0518: nL GLP-1(7-37; K34N) PEA mTf,,,375 nM
pREX0520: nL GLP-1(7-37; K34N) PEAPTD mTf,85 nM,,
